Experimental data reported in article PMC2254147, “Novel Triazine JPC-2067-B Inhibits Toxoplasma gondii In Vitro and In Vivo” (PLoS Neglected Tropical Diseases, 2008).

Sequences of proteins named here, by UniProt entry; tags and fusion partners are left off.
UniProt Q8I1R6, entry or part of it: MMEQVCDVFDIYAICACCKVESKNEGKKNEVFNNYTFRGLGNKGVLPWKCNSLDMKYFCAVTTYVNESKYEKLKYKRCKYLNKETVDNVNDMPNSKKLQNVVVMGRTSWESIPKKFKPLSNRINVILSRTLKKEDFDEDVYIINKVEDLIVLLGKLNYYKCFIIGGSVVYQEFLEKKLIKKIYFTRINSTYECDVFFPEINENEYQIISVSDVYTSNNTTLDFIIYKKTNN

Target: PfDHFR (Plasmodium falciparum, UniProt Q8I1R6)
Assay: Plate reader DHFR assay, recombinant P. falciparum DHFR
Assay type: biochemical
From the text: DHFR from T. gondii prepared as above was also directly compared to purified recombinant P. falciparum DHFR (pfDHFR) and purified recombinant human DHFR (hDHFR). The hDHFR was from pDFR plasmid. The enzyme was purified following ammonium sulfate precipitation, methotrexate:agarose affinity chromatography, and finally a Superdex 200 size exclusion column. The pfDHFR isolation methods were those reported previously,[44]. […] The same buffer as used in the other assays comparing T. gondii DHFR with DHFRs from rat liver P. carinii and M. avium intracellulare was used but the maximal activity, temperature, and length of observation were adjusted for assays on the specific plate reader. […] The reaction was setup at 23°C, the plate loaded, and the OD340 recorded at 20 second intervals for 10 minutes. The first 8 minutes were used to generate linear fit slopes in Excel. […] Results are expressed as the percent of control activity versus log concentration of inhibitor. Prism 5.0 was used to generate curves from 12 different concentrations of inhibitor using a non-linear fit method.

CCc1nc(N)nc(N)c1-c1ccc(Cl)cc1 [JPC-1090-A-1, Pyrimethamine]
IC50 (IC50 for P. falciparum DHFR, text to Figure 5 and Table 2): 0.042 µM | IC50 (PfDHFR IC50, recombinant, 23°C, (95% Confidence Intervals)): 0.0422 µM
